The results in this text go back to patent publication US20260022143A1, “Cyclic Peptide Inhibitors of IL-23” (JANSSEN PHARMACEUTICA NV, priority 2022, published 2026).

Data set [1] in a line: Exposed Polar Surface Area (EPSA). Type of data set: physicochemical. Particulars: SFC on Chirex 3014 column; sample 1 mM DMSO stock. An excerpt:
Exposed Polar Surface Area (EPSA) is an experimental descriptor of molecular polarity obtained from chromatographic retention in supercritical fluid chromatography (SFC).
The stationary phase (Chirex 3014(S)-valine and (R)-1-(alpha-naphthyl) ethylamine) was selected for its balance of lipophilic and polar attributes and its capacity to separate compounds with wide polarity differences. The mobile phase consists of methanol (+Ammonium formate) and CO2. Polar compounds are retained stronger under these conditions and a low-slope gradient of methanol achieves elution based on increasing polarity of the mobile phase. Results are normalized using calibration standards generating a linear relationship between retention times and EPSA values. The unit of EPSA is Å^2.
Along with the measurement of compounds of interest, a series of 8 calibration standards (see Materials) are analyzed generating a linear relationship between retention times and EPSA value. The 8 compounds used as calibration standard have their own EPSA value defined by G. Goetz based on the comparison with TPSA (see G. Goetz, L. Philippe and M. Shapiro, “EPSA: A novel supercritical fluid chromatography technique enabling the design of permeable cyclic peptides,” ACS Med. Chem. Lett., vol. 5, pp. 1167-1172, 2014 for more information). The slope from the linear relationship between EPSA values of these eight compounds and their retention times is used to determine the EPSA value of each compound of interest that's measured under the same condition using the equation as below: […]
The mixture of calibrations standard is reinjected every 20 compounds to validate the stability of the retention time.
The mobile phase modifier consists of ammonium formate LC_MS grade (>99%) (CAS number 540-69-2) diluted to 20 mM in HPLC grade Methanol (MeOH, CAS number 67-56-1) and liquid C02 SFC grade (CAS number 124-38-9).
Antipyrine (CAS number: 60-80-0) Chlorpromazine hydrochloride (CAS number: 69-09-0), desipramine hydrochloride (CAS number: […]), pindolol (CAS Number: 13523-86-9), diclofenac (CAS number: 15307-79-6)), m-nitro benzoic acid (CAS number: 121-92-6), bumetanide (CAS number: 28395-03-1), furosemide (CAS number: 54-31-9) were purchased from Sigma Aldrich (Steihneim, Germany).
All analyses were performed on a ultra performance convergence chromatography (UPC™) apparatus (Waters, Milford, MA, USA) equipped with a sample manager, a binary solvent delivery pump (BSM), a column manager, a convergence manager (automated back pressure regulator), a photo diode array detector (DAD) with a high pressure flow cell, and a mass detector simple quadrupole QDa. After the UV detector, the effluent of the SFC was mixed with an eluent consist of mixture MeOH/water (+0.3% Ammonia) 95/5 delivered by a make up pump with a flow rate of 0.4 mL/min and then split to the QDa using a splitter. The instrument was controlled, and data were processed with Masslynx 4.1.
The Analyses were performed using a 4.6×50 mm Chirex 3014(S)-valine and (R)-1-(alpha- naphthyl) ethylamine column (Phenomenex, Le Pecq, France) with 5 um particle and 100A pore size. The flow rate was 4 mL/min with the outlet pressure set to 14 MPa. The injection volume was 2 μL. the mobile phase composition was varied from 5% to 60% modifier at 20%/ min in a linear gradient, holding at 60% for 1.45 min and reverting to the original 5% until the end of the run. Data are acquired during 5 min. An equilibration time of 1 min is applied between 2 injections resulting in an injection every 6 min. each sample is analyzed in duplicate, resulting in a sample to sample turnaround time of 12 min.
The column temperature was set to 35° C. The mass detector was used in full scan from 100 to 800 for small molecules and from 500 to 1200 for peptides.
Each sample is delivered by compound logistics from DMSO stock solution without dilution. The concentration is 1 mM and the volume is 60 μL.

Data set [2] addresses T1, IL-23R (Homo sapiens, UniProt Q5VWK5).
T1 construct: host or cells: HEK293
T1 sequence (Q5VWK5 24-629): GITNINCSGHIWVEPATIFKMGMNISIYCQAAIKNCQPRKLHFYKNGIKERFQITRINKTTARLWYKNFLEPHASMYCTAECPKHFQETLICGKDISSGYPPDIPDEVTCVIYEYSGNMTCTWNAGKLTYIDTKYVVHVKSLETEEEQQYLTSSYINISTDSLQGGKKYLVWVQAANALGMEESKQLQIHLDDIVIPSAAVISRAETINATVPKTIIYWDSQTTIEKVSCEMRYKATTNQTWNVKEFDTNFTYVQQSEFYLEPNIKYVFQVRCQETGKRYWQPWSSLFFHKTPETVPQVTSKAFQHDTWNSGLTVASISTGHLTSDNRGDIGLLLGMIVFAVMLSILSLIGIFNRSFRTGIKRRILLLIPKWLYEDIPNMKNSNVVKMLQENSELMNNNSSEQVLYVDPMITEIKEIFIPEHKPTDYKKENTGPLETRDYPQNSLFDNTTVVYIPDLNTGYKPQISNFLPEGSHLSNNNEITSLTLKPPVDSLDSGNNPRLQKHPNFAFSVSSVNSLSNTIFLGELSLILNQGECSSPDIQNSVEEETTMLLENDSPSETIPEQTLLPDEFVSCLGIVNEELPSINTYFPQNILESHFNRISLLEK
As to the kind of experiment: IL23R Reporter Assay. Type of data set: cell-based. Particulars: read-out: IL23R Reporter Assay (micromolar); HEK293 cells containing IL-23R, IL-12RP1 and STAT-inducible firefly luciferase reporter; 10 ng/mL IL-23 (EC90); 5 h at 37° C. (A reporter such as luciferase makes a cellular process visible.)

Turning to “cPEG3aCO-Pen(3)-N(N(Me)2)-T-7MeW-K(Ac)-Pen(3)-TMAPF-2Nal-THP-K(NMeac)-N-3Pya-NMeK(SP6PEG2PEG2gEC12)-CONH2 [compound 408]”, the EPSA in data set [1] stood at 165.31 Å^2. Besides, in data set [2], the IC50 was determined as 0.0047 µM.
Consider “cPEG3aCO-k(PEG2PEG6gEC12)-Pen(3)-N(N(Me)2)-T-7MeW-K(Ac)-Pen(3)-TMAPF-2Nal-THP-K(NMeac)-N-3Pya-NMeK(PEG2PEG6gEC12)-CONH2 [compound 370]”, for which, in data set [1], the EPSA was 186.97 Å^2. In addition, the IC50 in data set [2] is 0.061 µM.
In the same order, the values of “cPEG3aCO-Pen(3)-N(N(Me)2)-t-7MeW-Dab(NMeAc)-Pen(3)-TMAPF-2Nal-THP-K(NMeAc)-N-3Pya-Sar-CONH2 [compound 362]” are 156.88 Å^2 and 0.0022 µM.
In turn, “cPEG5aCO-Pen(3)-N(N(Me)2)-t-7MeW-Dab(NMeAc)-Pen(3)-AEF-2Nal-THP-Dab(NMeAc)-N-3Pya-Sar-CON(Me)2 [compound 140]” displayed an EPSA in data set [1] of 148.3 Å^2. In addition, the IC50 in data set [2] is 0.003 µM.
“cPEG3aCO-Pen(3)-n-T-7MeW-K(NMeAc)-Pen(3)-AEF-2Nal-THP-K(NMeAc)-N-3Pya-Sar-CONH2 [compound 167]” yielded an EPSA in data set [1] of 157.24 Å^2. The IC50 in data set [2] is 0.0017 µM.
Substance “C12gEPEG2PEG2CO-Pen(3)-N(N(Me)2)-T-7MeW-K(Ac)-Pen(3)-TMAPF-2Nal-THP-K(NMeac)-N-3Pya-NMeK(PEG2PEG2gEC12)-CONH2 [compound 354]” displayed an EPSA in data set [1] of 194.35 Å^2. The IC50 in data set [2] turned out to be 0.33 µM.
In the same order, the values of “cPEG3aCO-Pen(3)-N(N(Me)2)-T-7MeW-K(Ac)-Pen(3)-TMAPF-2Nal-THP-K(NMeac)-N-3Pya-NMeK(PEG2PEG2C14)-CONH2 [compound 359]” are 146.57 Å^2 and 0.014 µM.
In turn, “cPEG3aCO-Pen(3)-N(N(Me)2)-t-7MeW-Dab(NMeAc)-Pen(3)-AEF-2Nal-THP-K(NMeAc)-N-3Pya-Sar-CONH2 [compound 171]” registered an EPSA in data set [1] of 152.42 Å^2. In data set [2], the IC50 was determined as 0.0029 µM.
The substance “cPEG3aCO-Pen(3)-N(N(Me)2)-t-7MeW-Dap(NMeAc)-Pen(3)-TMAPF-2Nal-THP-K(NMeAc)-N-3Pya-Sar-CON(Me)2 [compound 414]” showed an EPSA in data set [1] of 156.56 Å^2. Moreover, in data set [2], the IC50 was found to be 0.0027 µM.
The substance “cPEG3aCO-Pen(3)-N(N(Me)2)-t-7MeW-Dab(NMeAc)-Pen(3)-TMAPF-2Nal-THP-K(NMeAc)-N-3Pya-Sar-CON(Me)2 [compound 358]” returned an EPSA in data set [1] of 141.77 Å^2. The IC50 in data set [2] is 0.0053 µM.
Take “cPEG3aCO-Pen(3)-N(N(Me)2)-T-7MeW-K(NMeAc)-Pen(3)-Y(OtzlC1aC8)-2Nal-THP-K(NMeAc)-N-3Pya-Sar-CON(Me)2 [compound 290]”: the EPSA in data set [1] came to 137.35 Å^2. Moreover, the IC50 in data set [2] is 0.12 µM.
As for “C12gEPEG2PEG2CO-hk(Me)3-Pen(3)-N(N(Me)2)-T-7MeW-K(NMeAc)-Pen(3)-TMAPF-2Nal-THP-K(PEG2PEG2gEC12)-N-3Pya-Sar-CON(Me)2 [compound 375]”, the EPSA in data set [1] is reported as 171.72 Å^2. The IC50 in data set [2] is 0.24 µM.
“cPEG3aCO-Pen(3)-N(N(Me)2)-T-7MeW-K(NMeAc)-Pen(3)-mPEG3TMA4F-2Nal-THP-K(NMeAc)-N-3Pya-Sar-CON(Me)2 [compound 272]” registered an EPSA in data set [1] of 146.28 Å^2. Besides, in data set [2], the IC50 was 0.0022 µM.
As for “cPEG3aCO-k(PEG2PEG2gEC12)-Pen(3)-N(N(Me)2)-T-7MeW-K(NMeAc)-Pen(3)-TMAPF-2Nal-THP-K(NMeAc)-N-3Pya-Sar-CON(Me)2 [compound 378]”, the EPSA in data set [1] is given as 149.15 Å^2. Besides, the IC50 in data set [2] was determined as 0.0062 µM.
Substance “MeCO-Pen(3)-N(N(Me)2)-t-7MeW-Dab(NMeAc)-Pen(3)-AEF-2Nal-THP-AIB-N-3Pya-Sar-CON(Me)2 [compound 157]” registered an EPSA in data set [1] of 149.27 Å^2. The IC50 in data set [2] was found to be 0.0028 µM.
In the same order, the values of “cPEG3aCO-Pen(3)-n-T-7MeW-K(NMeAC)-Pen(3)-TMAPF-2Nal-THP-Dab(NMeAc)-N-3Pya-Sar-CON(Me)2 [compound 309]” are 157.5 Å^2 and 0.0011 µM.
In turn, “MeCO-Pen(3)-N(N(Me)2)-t-7MeW-Dab(NMeAc)-Pen(3)-AEF-2Nal-THP-Dab(NMeAc)-N-3Pya-Sar-CON(Me)2 [compound 170]” came in with an EPSA in data set [1] of 145.98 Å^2. Moreover, the IC50 in data set [2] stood at 0.004 µM.
Consider “cPEG3aCO-Pen(3)-N(N(Me)2)-T-7MeW-K(NMeAc)-Pen(3)-TMAPF-2nal-Achx-K(NMeAc)-N-3Pya-Sar-CON(Me)2 [compound 339]”, for which the EPSA in data set [1] turned out to be 154.59 Å^2. The IC50 in data set [2] was found to be 0.0019 µM.
Taken in the same sequence, the figures for “cPEG3aCO-k(PEG2PEG2gEC12)-Pen(3)-N(N(Me)2)-T-7MeW-K(PEG2PEG2gEC12)-Pen(3)-TMAPF-2Nal-THP-K(NMeAc)-N-3Pya-Sar-CON(Me)2 [compound 382]” were 176.03 Å^2 and 0.23 µM.
In the same order, the values of “cPEG3aCO-Pen(3)-n-T-7MeW-K(NMeAc)-Pen(3)-AEF-2Nal-THP-K(Ac)-N-3Pya-Sar-CONH2 [compound 162]” are 162.6 Å^2 and 0.0033 µM.
